According to PubChem BioAssay AID1346378 (National Center for Advancing Translational Sciences (NCATS), 2018):
Where “and” joins values, the source holds several entries; their conditions need not be identical. Equal entries are not always repeated. This is a selection; strong and weak results do not stand in their true shares. Calls of active or inactive are those of the source. Rule as the data show it: active = activity change below about -50%; inconclusive = mostly about -30% to -49%; inactive = weaker than that.

Sequences of proteins named here, by UniProt entry; tags and fusion partners are left off. A change or cut given only in a name is not applied to a line headed by its entry.
UniProt Q9BTU6: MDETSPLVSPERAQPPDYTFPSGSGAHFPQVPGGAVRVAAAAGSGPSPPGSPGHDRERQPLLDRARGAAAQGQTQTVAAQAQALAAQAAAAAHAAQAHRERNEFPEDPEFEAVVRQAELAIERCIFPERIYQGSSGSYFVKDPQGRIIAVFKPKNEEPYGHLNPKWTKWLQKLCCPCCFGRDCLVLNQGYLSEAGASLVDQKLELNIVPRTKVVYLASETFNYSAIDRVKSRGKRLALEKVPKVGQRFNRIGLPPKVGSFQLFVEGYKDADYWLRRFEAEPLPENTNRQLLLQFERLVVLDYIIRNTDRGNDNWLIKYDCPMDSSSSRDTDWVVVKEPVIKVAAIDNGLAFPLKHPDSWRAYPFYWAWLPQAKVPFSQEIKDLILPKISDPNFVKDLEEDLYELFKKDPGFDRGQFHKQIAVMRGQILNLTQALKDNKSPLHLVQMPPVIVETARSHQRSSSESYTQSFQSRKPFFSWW

Molecular target: Phosphatidylinositol 4-kinase type 2-alpha (Homo sapiens) (UniProt Q9BTU6)
Experiment: qHTS for small molecular inhibitors of PI4K2A;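 as to activity change, negative = inhibition: -100% = wells without enzyme as full effect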
Conditions: purified PI4K2A, ADP-Glo luminescence, 1 h; at 76.9 µM, active compounds read low
Source text: The phosphatidylinositol 4-phosphate (PI4P) is emerging as a key regulator of lipid transfer in ER-membrane contact sites. The four different phosphatidylinositol 4-kinase (PI4K) enzymes generate PI4P in different membrane compartments supporting distinct cellular processes many of which are crucial for the maintenance of cellular integrity but also hijacked by intracellular pathogens. The goal of this screening project is to search for small molecular inhibitors of PI4K2A based on a high throughput screening strategy.The ADP-Glo assay was used as a starting point to develop a miniaturized version for HTS applications. To implement the HTS screen, the PI4K ADP-Glotrade mark Kinase assay (Promega, V9102) was miniaturized for the 1536-well format used at NCGC.
For the robotic screening, the ADP-Glo assay using the ADP-Glotrade mark Kinase Assay kit from Promega was miniaturized and optimized on 1536-well white solid bottom plates (Greiner Bio-one). The substrate, 1.2 mM PI, prepared in the assay buffer (40mM Tris pH7.5, 20mM MgCl2, 1mM EGTA, 0.4% Triton X-100, 0.5mM DTT, 0.5mg/ml BSA) and PI4K2A enzyme, diluted also in the assay buffer to 4ug/mL, were dispensed onto the plates in equal volumes (1microl/well), pinned with 23 nL/well tested compounds or control followed by dispensation of 1microl/well 300microM ATP. The plates were incubated for one hour. Then, 2 µL/well of ADP-Glo reagent was added and incubated for 40 minutes. Next, 4microL/well of Kinase Detection Buffer was added to the plates and incubated for additional 40 minutes. All incubation steps were performed at ambient temperature. The resulting luminescence signal was measured on Viewlux plate reader (PerkinElmer). Adenosine, a partial non-specific inhibitor, was used as a positive control at 100microM final concentration to assess the assay's quality and plate-to-plate reproducibility. We also used "no enzyme" control to gauge the assay's maximal potential inhibition (IC100).

| SMILES | activity change, negative = inhibition |
| --- | --- |
| c1nnnn1CCn1cnnn1 | inactive: -0.628% |
| O=P(Nc1nccs1)(c1ccccc1)c1ccccc1 | inactive: 6.83% |
| CC(C)C(=O)NC(Sc1ccccc1)C(Cl)(Cl)Cl (stereo not drawn) | inactive: -2.66% |
| O=P(Nc1nc2ccccc2s1)(c1ccccc1)c1ccccc1 | inactive: 14.1% |
| C[C@H]1OP(=O)(Oc2ccccc2)[C@H](O)[C@H](O)[C@H]1N=[N+]=[N-] (stereo partly drawn) | inactive: -0.748% |
| Cc1cc([N+](=O)[O-])cc([N+](=O)[O-])c1O | inactive |
| CN(C(=O)Cc1ccccc1)[C@H]1CC[C@@]2(CCCO2)C[C@@H]1N1CCCC1 | inactive: 1.48% |
| Nc1ccc(CCCCOc2ccccc2)cc1 | inactive: -11.6% |
| COc1ccc(N)c([N+](=O)[O-])c1[N+](=O)[O-] | inactive: 6.54% |
| CN(C)C1(CNC(=O)c2ccc(Cl)c(S(N)(=O)=O)c2)CCCCC1 | inactive: 6.81% |
| O=P(Nc1ccccn1)(c1ccc(Br)cc1)c1ccc(Br)cc1 | inactive: 1.59% |
| Nc1ccc([As](=O)(O)c2ccc([N+](=O)[O-])cc2)cc1 | inactive: -6.77% |
| C(Cc1nn[nH]n1)Cc1nn[nH]n1 | inactive: 1.34% |
| O=C(OC1CN2CCC1CC2)c1cccc(Cl)c1 (stereo not drawn) | inactive: -1.92% |
| CC(=O)NC(SC(=S)N(C)C)C(Cl)(Cl)Cl (stereo not drawn) | inactive: 5.64% |
| O=[N+]([O-])c1ncn(CCn2cnc([N+](=O)[O-])n2)n1 | inactive: 0.008% |
| O=[N+]([O-])c1ccc(O)c(/C=N/Nc2ccc([N+](=O)[O-])cc2[N+](=O)[O-])c1 | inactive: -3.29% |
| O=[As](O)(c1ccccc1)c1ccc(O)cc1 | inactive: -1.69% |
| O=P1(N(CCCl)CCCl)OCCC2CCCCN21 (stereo not drawn) | inactive: 0.822% |
| O=C(NC1CCS(=O)(=O)C1)NP(=S)(Oc1ccccc1)Oc1ccccc1 (stereo not drawn) | inactive: -5.44% |
| CCNC(=S)/N=C(\N)N[N+](=O)[O-] | inactive: -2.22% |

| SMILES | activity change, negative = inhibition |
| --- | --- |
| c1ccc(-c2nn[nH]n2)c(-c2nn[nH]n2)c1 | inactive: -8.95% |
| Cc1ccc(NP(=O)(Oc2cccc(C)c2)Oc2cccc(C)c2)nc1 | inactive: 0.85% |
| Cc1ccccc1OP(=O)(Nc1ccccn1)Oc1ccccc1C | inactive: -0.788% |
| CC(NC(=O)COC(=O)C(O)(c1ccccc1)c1ccccc1)c1ccccc1 (stereo not drawn) | inactive: 0.785% |
| CN(C)C(=O)Oc1noc2ccccc12 | inactive: -4.01% |
| O=c1c2cc([N+](=O)[O-])ccc2[nH]c2c([N+](=O)[O-])cc([N+](=O)[O-])cc12 | inactive: 4.42% |
| COC(=O)c1cc2c(s1)N=C(c1ccccc1)N(C)P2(=O)N1CCOCC1 (stereo not drawn) | inactive: 0.476% |
| CC(=O)NC(SC(=S)N(CC(C)C)CC(C)C)C(Cl)(Cl)Cl (stereo not drawn) | inactive: -4.76% |
| Cc1ccc(OP(=O)(Nc2ccccn2)Oc2ccc(C)cc2)cc1 | inactive: -4.84% |
| O=C(OC1CN2CCC1CC2)c1ccccc1 (stereo not drawn) | inactive: 4.73% |
| CN(C(=O)Cc1ccc(Cl)c(Cl)c1)[C@@H]1CCCC[C@@H]1N1CCCC1 | inactive: 2.89% |
| CCC(=O)N1C2C3N(C(=O)CC)C1C1N(C(=O)CC)C(C(N1C(=O)CC)N3C(=O)CC)N2C(=O)CC | inactive: 6.26% |
| CCc1cc(O)c([N+](=O)[O-])c(C)c1[N+](=O)[O-] | inactive: 3.55% |
| CC(C)(C)C(=O)NC(Sc1ccccc1)C(Cl)(Cl)Cl (stereo not drawn) | inactive: -1.55% |
| O=P1(Nc2nc3ccc(Cl)cc3s2)COc2ccccc2O1 (stereo not drawn) | inactive: 2.83% |
| CCOc1ccc(C2=NCC(CBr)S2)cc1 (stereo not drawn) | inactive: 2.76% |
| CC(=O)Nc1ccc([As](=O)(O)O)c(O)c1 | inactive: -5.94% |
| CC(=O)Nc1ccc(Oc2c([N+](=O)[O-])cc([N+](=O)[O-])cc2[N+](=O)[O-])cc1 | inactive: 0.668% |
| N#C/C(=C\c1ccc(N(CCBr)CCBr)cc1)C(N)=O | inactive: 3.33% |
| CC(=O)c1ccc(N2CC2c2ccncc2)cc1 (stereo not drawn) | inactive: -1.53% |
| COC(=O)C1(C)COP(=O)(NCc2ccccc2)OC1 (stereo not drawn) | inactive: -0.877% |

| SMILES | activity change, negative = inhibition |
| --- | --- |
| Cc1ccccc1CN(C)C(=O)COC(=O)C(O)(c1ccccc1)c1ccccc1 | inactive: -2.4% |
| C[C@@H]1C=CCP(=O)(Oc2ccccc2)O1 (stereo partly drawn) | inactive: 1.02% |
| C[C@H]1OP(=O)(Oc2ccccc2)C[C@@H]2O[C@@H]21 (stereo partly drawn) | inactive: 6.39% |
| COc1ccccc1OP(=O)(Nc1ccc(C)cn1)Oc1ccccc1OC | inactive: -0.452% |
| Cc1ccc(OP(=O)(Nc2nccs2)Oc2ccc(C)cc2)cc1 | inactive: -0.917% |
| CCNC(C)Cc1ccc2c(c1)OCO2 (stereo not drawn) | inactive |
| Clc1ccc(Cl)c(NC2=NCC(CBr)S2)c1 (stereo not drawn) | inactive: 1.29% |
| CN1CCCC(OC(=O)C(c2ccccc2)c2ccccc2)C1 (stereo not drawn) | inactive: -2.13% |
| NC(=O)c1cc([N+](=O)[O-])cc([N+](=O)[O-])c1N | inactive: 1.29% |
| CN(C(=O)Cc1ccc(Cl)c(Cl)c1)[C@H]1CCCC[C@H]1N1CCCC1 | inactive: -3.02% |
| Cc1ccc(N/C(=N/P(=O)(N2CCOCC2)N2CCOCC2)N2CCOCC2)cc1 | inactive: 6.14% |
| O=[N+]([O-])C1C(O)C(O)C([N+](=O)[O-])C(O)C1O (stereo not drawn) | inactive: 0.143% |
| CC(C)CC(=O)NC(Sc1ccc(Cl)cc1)C(Cl)(Cl)Cl (stereo not drawn) | inactive: -0.34% |
| Nc1cc(N)c2nonc2c1[N+](=O)[O-] | inactive: -12.3% |
| Oc1ccccc1CNc1ccccn1 | inactive: 2.81% |
| O=C(NC(Sc1ccncn1)C(Cl)(Cl)Cl)c1ccccc1 (stereo not drawn) | inactive: -2.08% |
| CCOP(=O)(Nc1ccccc1)OCC | inactive: 16.6% |
| Cc1cc(SC(NC(=O)c2ccc(F)cc2)C(Cl)(Cl)Cl)ncn1 (stereo not drawn) | inactive: -4.82% |
| CN(C(=O)Cc1ccc(Cl)c(Cl)c1)[C@H]1CCCC[C@@H]1N1CCCC1 | inactive: -5.62% and inactive: -0.0001% and inactive: 2.55% |
| Cc1ccc(NP(=O)(Oc2ccccc2F)Oc2ccccc2F)nc1 | inactive: -2.02% |
| O=C(O)c1ccccc1[As](=O)(O)O | inactive: 0.199% |
